In PubChem BioAssay AID751 (NMMLSC, 2007):
The entries are a selection whose mix differs from that of the whole data set. Active and inactive are the calls of the source.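 Rule for the calls: active = inhibition of disassembly above about 33% (limit read from the data); inconclusive = likely self-fluorescent, control bead median signal at least 40; inactive = the rest.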

These molecules were tested on 26S proteasome (yeast, GFP-tagged, ATP-dependent disassembly) (assay: blockers of yeast 26S proteasome breakdown – biochemical, bead-based flow cytometry, GFP-tagged proteasome, primary screen (AID 751;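 note: plate controls were ATP control with full disassembly for no effect and ATP-gamma-S intact proteasomes for full effect; higher percent means more bead fluorescence retained so stronger block of disassembly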)). Conditions: anti-FLAG beads, stronger effect = higher value, concentration not given here.
`CP(=O)(Nc1ccccn1)Oc1ccccc1` (centres undefined) was tested, and the inhibition of disassembly was inactive: -1.19%.
`Cc1nc2ccc3ccccc3c2o1.O=[N+]([O-])c1cc([N+](=O)[O-])c(O)c([N+](=O)[O-])c1` was tested, and the inhibition of disassembly was inactive: -3.34%.
For `CCc1nc2c(n1)c1c(non1O)c1c2no[n+]1[O-]`, the inhibition of disassembly was inactive: 0.06%.
For `O=P(Nc1nccs1)(c1ccccc1)c1ccccc1`, the inhibition of disassembly was inactive: 1.31%.
For `Cc1ccccc1NP(C)(=O)Nc1ccccc1C`, the inhibition of disassembly was inactive: 0.18%.
For `CP(=O)(Nc1ccc2c(c1)OCCO2)Oc1ccccc1` (centres undefined), the inhibition of disassembly was inactive: -0.15%.
For `CN(C)CCOC(=O)C(O)(c1ccccc1)C1CCCCC1` (centres undefined), the inhibition of disassembly was inactive: 2.49%.
`Cc1ccc(C)c(NP(C)(=O)Oc2ccccc2)c1` (centres undefined) was tested, and the inhibition of disassembly was inactive: -3.46%.
With `CCOP1(=S)c2c(C)nn(CCC#N)c2N=C(c2ccccc2F)N1C` (centres undefined) the inhibition of disassembly was inactive: -1.05%.
`Cc1nn(-c2ccccc2)c2c1P(=O)(N1CCOCC1)N(C)C(c1ccccc1)=N2` (centres undefined) was tested, and the inhibition of disassembly was inactive: 3.95%.
In the case of `Clc1n[nH]nc1-c1nn[nH][15n]1`, the inhibition of disassembly was inactive: -0.81%.
With `O=C(COc1ccccc1)OC1CN2CCC1CC2` (centres undefined) the inhibition of disassembly was inactive: 0.61%.
In the case of `COP1(=S)c2c(C)nn(CCC#N)c2N=C(c2ccc(F)cc2)N1C` (centres undefined), the inhibition of disassembly was inactive: -0.23%.
In the case of `CP(=S)(Nn1cnnc1)Oc1ccccc1` (centres undefined), the inhibition of disassembly was inactive: -0.71%.
